Here are results for 1 compound from ChEMBL document CHEMBL5325439, “Application of an "inhalation by design" approach to the identification and in-vitro evaluation of novel purine based PI3Kδ inhibitors” (Eur J Med Chem, 2023).

This assay has as its system HepG2. Kind of assay: Cytotoxicity against human HepG2 cells assessed as reduction in cell viability at 10 to 30 uM incubated for 48 hrs by celltiter-glo assay. The class given is functional, cell-based. Conditions: dose 10-30 µM.

Activity calls are given as the source filed them. The rule behind the calls is not given here.

Regarding `CC/C(=C(\c1ccccc1)c1ccc(OCCN(C)C)cc1)c1ccccc1`, the outcome was Active.
